# Assay results published in patent US6630464B1, “Cyclin dependent kinase (CDK)4 inhibitors and their use for treating cancer” (The United States of America as represented by the …, priority 1997, dated 2003).
# Test system: 60 human cancer cell lines of the NCI drug screen panel
# Experiment: In vitro antitumor activity, sulforhodamine-B assay, NCI drug screen panel
# Format: cell-based
# Conditions: 48 h, 2 day growth assay of the NCI drug screen
# Description: Cell lines, compounds, and in vitro sensitivity testing. Exponentially growing cultures of the nine non-small cell lung, eight melanoma, eight renal, eight breast, seven colon, six brain, six leukemia, six ovarian, and two prostate cancer cell lines from the NCI drug screen panel were used. Compounds were obtained from the Drug Synthesis and Chemistry Branch, National Cancer Institute. In vitro antitum or activity of compounds was determined using a sulforhodamine-B assay in the 60 human cancer cell lines of the NCI drug screen panel.
# Compounds of the present invention have been subjected to the drug screening procedure employed by the National Cancer Institute for the screening of drugs having possible anticancer utility. The screening procedure uses a diverse, disease-oriented panel consisting of different human tumor cell lines organized into disease-specific subpanels. The compounds of the present invention were tested over a range of concentrations for cytotoxic or growth-inhibitory effects against cell lines comprising the panel. The subpanels represented diverse histologies (leukemias, melanomas, and tumors of the lung, colon, kidney, breast, ovary, and brain). […]
# To produce data for the mean-graph format, a compound concentration that produced a target level response was calculated for each cell line. Three different response parameters were evaluated. […]
smiles,measurement,value
"Nc1ccc2c(=S)c3ccccc3[nH]c2c1 [Compound 3, 3-Amino-10H-acridine-9-thione]",GI50,30 µM
